A short description of this experiment: Binding affinity to human PP5 extracted from Escherichia coli BL21 using immobilized CDC37 as substrate assessed as increase in PP5 binding to substrate by measuring dissociation constant preincubated with compound for 10 mins followed by CDC37 addition by biolayer interferometric analysis (Rvb = 20.9 nM ).

On to `N=c1oc2cc(F)cc(F)c2cc1C(N)=S`, for which the Kd worked out at 540 pM.

What is called Kd is the concentration at which binding is half-saturated.

These data come from BindingDB's records for PubMed 39145509 (China Pharmaceutical University).
